We go through 1 compound from PMC5785486, “Enhanced Skin Permeation of Anti-wrinkle Peptides via Molecular Modification” (Scientific Reports, 2018).

The conditions of series [1]: cited from earlier work.
For series [2] the following is noted: cited from earlier work. The source holds these as a separate data set.
Series [3] can be described thus: In vitro skin permeation, vertical Franz diffusion cells. To be noted: vertical Franz cell 1 cm^2, human dermatomed cadaver skin, 400 µL saturated solution (max 1% w/w), receptor 4.8 mL 1X PBS, 32 °C, 180 rpm, HPLC-UV 215 nm, mean of triplicates.
Series [4] is described as follows: Saturated peptide solution (solubility in solvent). To be noted: neat PG; thermodynamic, excess peptide shaken 48 h at room temperature, centrifuged 10000 rpm 3 minutes, supernatant assayed.

On to `CSCC[C@H](NC(=O)[C@H](CCC(=O)O)NC(=O)[C@H](CCC(=O)O)NC(C)=O)C(=O)N[C@@H](CCC(N)=O)C(=O)N[C@@H](CCCNC(=N)N)C(=O)N[C@@H](CCCNC(=N)N)C(N)=O`, for which the “Share of total amount permeated through and stayed in the human epidermis” value in series [1] (10% w/w in an O/W emulsion) is recorded as 0.23%. The “Share of peptide that made it through to the epidermis” value in series [1] (in vitro, human cadaver skin) is on record as 0.01%. Moreover, the “Share of total amount permeated through the skin and retained within stratum corneum” value in series [1] (in vitro, human cadaver skin) is recorded as 0.22%. In addition, in series [2], the LogP was −6.3. The “Cumulative Amount Permeated Through Skin after 24 hrs, Average” value is reported as 76.4 µg in series [3] (0% PG (pure water) donor); 153.2 µg in series [3] (30% PG in water donor); 53.5 µg in series [3] (50% PG in water donor); 667.4 µg in series [3] (70% PG in water donor); 144.4 µg in series [3] (100% PG (pure PG) donor). In series [4], the “Concentration of saturated solution in the donor compartment” value came to 0.2 % w/w.
